PubChem BioAssay (NCI)
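Tested at 5 concentrations; 48 h exposure; 96-well plates; endpoints linearly interpolated, else capped at highest concentration. At the GI50, growth is halved. TGI is the concentration that stops growth completely.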

How the values were obtained:
Assay in all cases: DTP human tumour cell line panel, 48 h
[1] = system: OVCAR-3 ovarian
[2] = system: HCT-116 colon
[3] = system: NCI-H460 lung
[4] = system: A549 NSCLC
[5] = system: TK-10 renal
[6] = system: T-47D breast
[7] = system: NCI/ADR-RES ovarian
[8] = system: HT29 colon
[9] = system: LOX IMVI melanoma
[10] = system: NCI-H226 lung
[11] = system: UACC-62 melanoma
[12] = system: RPMI-8226 leukemia
[13] = system: MALME-3M melanoma
[14] = system: HS 578T breast
[15] = system: SK-MEL-28 melanoma
[16] = system: SK-MEL-2 melanoma
[17] = system: UACC-257 melanoma
[18] = system: ACHN renal
[19] = system: SF-539 CNS
[20] = system: PC-3 prostate
[21] = system: CCRF-CEM leukemia
[22] = system: OVCAR-5 ovarian
[23] = system: KM12 colon
[24] = system: SK-MEL-5 melanoma
[25] = system: MOLT-4 leukemia
[26] = system: NCI-H23 lung
[27] = system: K-562 leukemia
[28] = system: HOP-62 NSCLC
[29] = system: HCT-15 colon
[30] = system: MDA-MB-435
[31] = system: U251 CNS
[32] = system: NCI-H522 lung
[33] = system: SF-295 CNS
[34] = system: HCC-2998 colon
[35] = system: CAKI-1 renal
[36] = system: SN12C renal
[37] = system: BT-549 breast
[38] = system: SF-268 CNS
[39] = system: HOP-92 NSCLC
[40] = system: DU-145 prostate
[41] = system: NCI-H322M lung
[42] = system: SNB-75 CNS
[43] = system: SNB-19 CNS
[44] = system: M14 melanoma
[45] = system: SR leukemia
[46] = system: A498 renal
[47] = system: HL-60(TB) leukemia
[48] = system: UO-31 renal
[49] = system: COLO 205 colon
[50] = system: 786-0 renal
[51] = system: SK-OV-3 ovarian
[52] = system: IGROV1 ovarian
[53] = system: RXF 393 renal
[54] = system: OVCAR-4 ovarian
[55] = system: MDA-MB-231 breast
[56] = system: MCF7 breast
[57] = system: OVCAR-8 ovarian
[58] = system: SW-620 colon

Work on `CCN(CC)[P+](c1ccc(OC)cc1OC)(N(CC)CC)N(CC)CC` yielded a GI50 [1] of 1.46 µM, a TGI [1] of 45.7 µM and a GI50 [2] of 2.4 µM. It also gave a TGI [2] greater than 100 µM, a GI50 [3] of 1.76 µM and a TGI [3] of 27.7 µM. It also gave a GI50 [4] of 4.34 µM, a TGI [4] greater than 100 µM and a GI50 [5] of 3.89 µM. For the same compound, the TGI [5] was greater than 100 µM, the GI50 [6] was 1.01 µM and the TGI [6] was greater than 100 µM. It also gave a GI50 [7] greater than 100 µM, a TGI [7] greater than 100 µM and a GI50 [8] of 2.65 µM. For the same compound, the TGI [8] was 16.4 µM, the GI50 [9] was 2.2 µM and the TGI [9] was 6.05 µM. For the same compound, the GI50 [10] was 5.99 µM, the TGI [10] was greater than 100 µM and the GI50 [11] was 1.7 µM. The TGI [11] was 21.3 µM, the GI50 [12] was 0.946 µM and the TGI [12] was greater than 100 µM. It also gave a GI50 [13] of 3.13 µM, a TGI [13] of 70.6 µM and a GI50 [14] of 3.6 µM. The TGI [14] was 73.4 µM, the GI50 [15] was 6.5 µM and the TGI [15] was greater than 100 µM. It also gave a GI50 [16] of 2.62 µM, a TGI [16] of 8.24 µM and a GI50 [17] of 0.744 µM. It also gave a TGI [17] of 7.1 µM, a GI50 [18] of 20.7 µM and a TGI [18] greater than 100 µM. It also gave a GI50 [19] of 5.67 µM, a TGI [19] greater than 100 µM and a GI50 [20] of 0.855 µM. It also gave a TGI [20] of 16.3 µM, a GI50 [21] of 5.41 µM and a TGI [21] greater than 100 µM. It also gave a GI50 [22] of 10.9 µM, a TGI [22] greater than 100 µM and a GI50 [23] of 1.43 µM. For the same compound, the TGI [23] was 18.6 µM, the GI50 [24] was 0.927 µM and the TGI [24] was 6.47 µM. The GI50 [25] was 7.43 µM, the TGI [25] was greater than 100 µM and the GI50 [26] was 3.52 µM. The TGI [26] was greater than 100 µM, the GI50 [27] was 1.91 µM and the TGI [27] was greater than 100 µM. The GI50 [28] was 4.75 µM, the TGI [28] was greater than 100 µM and the GI50 [29] was 37.9 µM. The TGI [29] was greater than 100 µM, the GI50 [30] was 1.53 µM and the TGI [30] was 19.1 µM. The GI50 [31] was 1.95 µM, the TGI [31] was greater than 100 µM and the GI50 [32] was 2.23 µM. The TGI [32] was 12.4 µM, the GI50 [33] was 3.27 µM and the TGI [33] was 28.3 µM. It also gave a GI50 [34] of 3.35 µM, a TGI [34] greater than 100 µM and a GI50 [35] of 26.4 µM. It also gave a TGI [35] greater than 100 µM, a GI50 [36] of 2.87 µM and a TGI [36] greater than 100 µM. The GI50 [37] was 4.44 µM, the TGI [37] was greater than 100 µM and the GI50 [38] was 4.19 µM. It also gave a TGI [38] greater than 100 µM, a GI50 [39] of 1.05 µM and a TGI [39] of 6.81 µM. It also gave a GI50 [40] of 4.08 µM, a TGI [40] greater than 100 µM and a GI50 [41] of 6.87 µM. It also gave a TGI [41] of 89 µM, a GI50 [42] of 1.84 µM and a TGI [42] of 9.94 µM. It also gave a GI50 [43] of 2.94 µM, a TGI [43] greater than 100 µM and a GI50 [44] of 4.15 µM. For the same compound, the TGI [44] was greater than 100 µM, the GI50 [45] was 4.25 µM and the TGI [45] was greater than 100 µM. It also gave a GI50 [46] of 1.63 µM, a TGI [46] of 8.28 µM and a GI50 [47] of 0.833 µM. The TGI [47] was 6.13 µM, the GI50 [48] was 19.1 µM and the TGI [48] was 83.9 µM. For the same compound, the GI50 [49] was 1.15 µM, the TGI [49] was 2.74 µM and the GI50 [50] was 13.5 µM. It also gave a TGI [50] greater than 100 µM, a GI50 [51] of 5.79 µM and a TGI [51] of 88 µM. It also gave a GI50 [52] of 2.79 µM, a TGI [52] of 33.6 µM and a GI50 [53] of 10.4 µM. It also gave a TGI [53] greater than 100 µM, a GI50 [54] of 2.96 µM and a TGI [54] greater than 100 µM. For the same compound, the GI50 [55] was 4.28 µM, the TGI [55] was greater than 100 µM and the GI50 [56] was 0.861 µM. It also gave a TGI [56] greater than 100 µM, a GI50 [57] of 2 µM and a TGI [57] of 23.9 µM. The GI50 [58] was 3.11 µM and the TGI [58] was greater than 100 µM.
